# pIC50: −log10 of the molar value.
# Chains of the proteins cited; added tags and fusions are not shown.
# UniProt P34913, whole entry: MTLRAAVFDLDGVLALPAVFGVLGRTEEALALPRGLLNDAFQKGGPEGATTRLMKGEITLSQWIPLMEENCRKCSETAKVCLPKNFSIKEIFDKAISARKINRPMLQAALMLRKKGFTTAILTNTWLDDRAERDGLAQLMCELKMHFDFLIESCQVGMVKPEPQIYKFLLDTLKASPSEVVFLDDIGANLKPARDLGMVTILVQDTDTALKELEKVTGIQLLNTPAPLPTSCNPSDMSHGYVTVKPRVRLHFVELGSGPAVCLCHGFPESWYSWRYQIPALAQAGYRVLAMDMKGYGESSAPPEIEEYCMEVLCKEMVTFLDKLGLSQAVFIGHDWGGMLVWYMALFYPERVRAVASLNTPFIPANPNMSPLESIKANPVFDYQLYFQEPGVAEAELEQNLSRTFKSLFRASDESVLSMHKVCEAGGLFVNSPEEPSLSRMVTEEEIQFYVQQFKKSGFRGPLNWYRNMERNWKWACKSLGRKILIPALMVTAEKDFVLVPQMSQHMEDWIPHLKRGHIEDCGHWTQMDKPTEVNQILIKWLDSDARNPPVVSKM
# Target: human sEH (Homo sapiens, UniProt P34913)
# Experiment: sEH inhibition, fluorescent assay with cyano(6-methoxy-naphthalen-2-yl)methyl trans-[(3-phenyloxiran-2-yl)methyl]carbonate as substrate
# Format: biochemical
# Settings: read-out: Human sEH IC50; Table 5; fluorescent-based assay, 0.96 nM human sEH, pH 7.0, [S] = 5 μM
smiles,measurement,value
"CC(C)NC(=O)CCCCCCCCCCCNC(=O)NC12CC3CC(CC(C3)C1)C2 [Compound 793, 1-(1-Adamantyl)-3-(11-isopropylaminocarbonylundecyl)urea]",pIC50,8.54

# Source: patent US8476043B2 (dated 2013)
